{"source": "PubChem BioAssay AID807", "about": "(SRMLSC, 2007)", "note": "The entries are a selection whose mix differs from that of the whole data set. Calls of active or inactive are those of the source.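 The calls were made as follows: active = viability increase at or above a cutoff of the median across tested compounds plus 3 SD (cut at about 8.5% in these data, passing the limit was not always enough); inconclusive = some gains above the cutoff, reason not given; inactive = the rest.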"}
{"test": "doxorubicin toxicity protection in MRP-1 cells – H69AR cells, CellTiter-Glo, duplicate, MRP-1 activator project, pilot screen (AID 807);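 also: compound pretreatment 18-22 h then 72 h combined with doxorubicin; 0% = doxorubicin alone and 100% = vehicle without doxorubicin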", "settings": "H69AR viability with doxorubicin, CellTiter-Glo luminescence; at 10 µM; hits give high values"}
{"smiles": "CP(=O)(Nc1ccc2c(c1)OCCO2)Oc1ccccc1", "note": "(stereo not given)", "viability increase": "inactive: 0.07%"}
{"smiles": "CP(=O)(Oc1ccccc1)N1CCOC1=O", "note": "(stereo not given)", "viability increase": "inactive: 0.53%"}
{"smiles": "Cc1ccc(NP(C)(=O)Oc2ccccc2)c(C)c1", "note": "(stereo not given)", "viability increase": "inactive: -1.74%"}
{"smiles": "CP(=O)(NC(=O)Nc1ccccc1)Oc1ccccc1", "note": "(stereo not given)", "viability increase": "inactive: -3.81%"}
{"smiles": "Cc1ccc(C)c(NP(C)(=O)Oc2ccccc2)c1", "note": "(stereo not given)", "viability increase": "inactive: -2.68%"}
